For the assay, the target named is T1, human CDK9 (human).
T1 construct: It is probably nucleotide, so it is not used as a protein entry; CDK9 was used both immobilised in sol-gel spots and as the soluble reactant; also called recombinant human CDK9
Kind of assay: sol-gel protein chip (composition 3), immobilised CyclinT1, soluble CDK9 detected with anti-CDK9 and Cy3 secondary antibody, in presence of RNA aptamers.

B1: human Cyclin T1 (other, UniProt O60563 1-266, looked up)
chain: MEGERKNNNKRWYFTREQLENSPSRRFGVDPDKELSYRQQAANLLQDMGQRLNVSQLTINTAIVYMHRFYMIQSFTQFPGNSVAPAALFLAAKVEEQPKKLEHVIKVAHTCLHPQESLPDTRSEAYLQQVQDLVILESIILQTLGFELTIDHPHTHVVKCTQLVRASKDLAQTSYFMATNSLHLTTFSLQYTPPVVACVCIHLACKWSNWEIPVSTDGKHWWEYVDATVTLELLDELTHEFLQILEKTPNRLKRIWNWRACEAAKK
notes: domain: cyclin box; It was immobilised in sol-gel spots on a 96-well plate
Regarding B1, the binding result is recorded as “binds”.

The values are drawn from patent publication US20120129722A1 (DONGGUK UNIVERSITY INDUSTRY ACADEMIC COOPERATION FOUNDATION, published 2012).
